Usually IC50 stands for the concentration at which inhibition is half-maximal.

Protein sequences, listed by entry. Tags and fused reporters are not part of them.
UniProt Q9H0K1, whole entry: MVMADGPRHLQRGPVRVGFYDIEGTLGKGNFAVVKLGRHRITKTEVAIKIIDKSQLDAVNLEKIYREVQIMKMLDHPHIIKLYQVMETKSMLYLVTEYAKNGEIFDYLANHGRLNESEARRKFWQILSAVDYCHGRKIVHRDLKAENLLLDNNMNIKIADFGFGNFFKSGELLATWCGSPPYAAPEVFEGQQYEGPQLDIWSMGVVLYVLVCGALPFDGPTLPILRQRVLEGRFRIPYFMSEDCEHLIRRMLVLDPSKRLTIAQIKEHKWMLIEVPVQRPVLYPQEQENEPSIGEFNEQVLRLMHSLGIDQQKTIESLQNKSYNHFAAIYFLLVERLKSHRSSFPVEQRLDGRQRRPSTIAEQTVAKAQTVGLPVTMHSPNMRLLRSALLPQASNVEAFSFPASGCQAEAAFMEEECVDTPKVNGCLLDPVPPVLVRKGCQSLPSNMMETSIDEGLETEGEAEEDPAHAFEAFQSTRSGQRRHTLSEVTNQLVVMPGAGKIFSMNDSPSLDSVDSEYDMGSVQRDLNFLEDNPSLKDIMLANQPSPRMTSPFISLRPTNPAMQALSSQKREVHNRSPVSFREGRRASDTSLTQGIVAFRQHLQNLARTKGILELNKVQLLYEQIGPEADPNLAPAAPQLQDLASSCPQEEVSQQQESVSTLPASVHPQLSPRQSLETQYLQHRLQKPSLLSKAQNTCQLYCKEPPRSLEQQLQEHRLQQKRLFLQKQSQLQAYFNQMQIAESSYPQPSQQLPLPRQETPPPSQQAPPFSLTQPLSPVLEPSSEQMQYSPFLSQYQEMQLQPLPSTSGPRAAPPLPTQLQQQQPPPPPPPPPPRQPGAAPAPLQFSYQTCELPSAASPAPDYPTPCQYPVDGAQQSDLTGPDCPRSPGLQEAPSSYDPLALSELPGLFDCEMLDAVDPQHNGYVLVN
UniProt Q9Y2K2, whole entry: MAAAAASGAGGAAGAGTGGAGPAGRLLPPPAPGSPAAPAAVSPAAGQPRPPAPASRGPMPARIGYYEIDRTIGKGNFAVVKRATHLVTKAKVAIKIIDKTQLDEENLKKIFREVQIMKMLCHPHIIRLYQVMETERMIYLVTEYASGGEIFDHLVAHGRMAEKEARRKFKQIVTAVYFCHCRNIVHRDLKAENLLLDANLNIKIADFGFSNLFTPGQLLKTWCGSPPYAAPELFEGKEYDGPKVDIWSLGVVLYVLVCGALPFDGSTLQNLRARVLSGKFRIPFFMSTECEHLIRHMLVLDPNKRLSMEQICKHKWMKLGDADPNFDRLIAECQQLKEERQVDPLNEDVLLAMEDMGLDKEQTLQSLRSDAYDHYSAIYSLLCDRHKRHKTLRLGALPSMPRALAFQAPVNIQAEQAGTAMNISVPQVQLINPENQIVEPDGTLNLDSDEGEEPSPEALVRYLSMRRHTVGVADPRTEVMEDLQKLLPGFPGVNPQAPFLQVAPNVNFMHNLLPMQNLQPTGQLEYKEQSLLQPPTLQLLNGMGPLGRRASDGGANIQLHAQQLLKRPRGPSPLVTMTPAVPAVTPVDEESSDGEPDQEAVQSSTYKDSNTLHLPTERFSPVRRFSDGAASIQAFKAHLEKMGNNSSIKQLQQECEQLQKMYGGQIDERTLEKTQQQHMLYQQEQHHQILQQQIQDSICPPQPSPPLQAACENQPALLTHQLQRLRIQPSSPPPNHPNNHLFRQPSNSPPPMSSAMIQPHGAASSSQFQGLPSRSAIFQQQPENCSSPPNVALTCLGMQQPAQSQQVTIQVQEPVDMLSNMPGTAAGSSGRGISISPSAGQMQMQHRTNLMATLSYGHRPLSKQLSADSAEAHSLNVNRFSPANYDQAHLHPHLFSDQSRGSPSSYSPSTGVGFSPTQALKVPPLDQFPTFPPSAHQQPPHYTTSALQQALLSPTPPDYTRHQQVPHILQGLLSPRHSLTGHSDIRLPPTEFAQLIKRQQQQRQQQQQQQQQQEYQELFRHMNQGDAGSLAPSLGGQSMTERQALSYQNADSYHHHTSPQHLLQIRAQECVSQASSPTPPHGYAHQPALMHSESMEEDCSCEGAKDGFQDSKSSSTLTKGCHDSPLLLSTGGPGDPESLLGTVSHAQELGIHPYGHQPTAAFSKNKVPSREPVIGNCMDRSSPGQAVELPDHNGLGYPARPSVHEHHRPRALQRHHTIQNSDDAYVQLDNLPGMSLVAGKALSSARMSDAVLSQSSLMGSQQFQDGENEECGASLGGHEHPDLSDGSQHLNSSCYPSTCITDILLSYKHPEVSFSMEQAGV

One experiment has as its target SIK2 (Homo sapiens, UniProt Q9H0K1). Description: Protein kinase assay ([γ-32P] ATP, phosphocellulose paper) against SIK2. To be noted: read-out: Enzyme Inhibition IC50 SIK2.
Another experiment addresses SIK3 (Homo sapiens, UniProt Q9Y2K2). Kind of experiment: Protein kinase assay ([γ-32P] ATP, phosphocellulose paper) against SIK3. To be noted: read-out: Enzyme Inhibition IC50 SIK3.

As for `Cc1cccc(C)c1OC(=O)N1CCCCOCc2cc(ccc2OCCN2CCOCC2)Nc2nccc1n2`, the figures for the IC50 at SIK2 and at SIK3 were 18.9 nM and 176 nM, respectively.

Source of the values: patent publication US10265321B2, “Uses of salt-inducible kinase (SIK) inhibitors” (Dana-Farber Cancer Institute, Inc., priority 2014, dated 2019).
